Test system: Nav1.7^Nav1.8Cre mice
Settings: mouse, in vivo

Compound: Nc1n[nH]cc1-c1cc(C(F)(F)F)ccc1Oc1cc(F)c(S(=O)(=O)Nc2cscn2)cc1Cl [PF-05198007, 4-(2-(3-amino-1H-pyrazol-4-yl)-4-(trifluoromethyl)phenoxy)-5-chloro-2-fluoro-N-(thiazol-4-yl)benzenesulfonamide]
- Effect on capsaicin flare response: no effect

Source: paper PMC4822888, “Subtype-Selective Small Molecule Inhibitors Reveal a Fundamental Role for Nav1.7 in Nociceptor Electrogenesis, Axonal Conduction and Presynaptic Release” (PLoS ONE, 2016)
